## Reported properties for industrial, environmental and drug-like chemicals

Values as listed in the OPERA 2.9 repository of K. Mansouri.

Melting points are in °C. Boiling points are in °C, nominally at 760 mmHg. logP is the log10 of the octanol-water partition coefficient; higher is more lipophilic. Solubility in water is on a log10 molar scale (set defined at 25 °C). Vapor pressure is log10 of mmHg; the set covers 15 to 30 °C, mostly 20 to 25 °C. The unbound fraction in human plasma runs from 0 (all bound) to 1 (all free). Clint is human hepatic intrinsic clearance in µL/min per million cells; 0 means that no clearance was seen. Cells with "–" have no entry in this list.

SMILES,name,melting point (°C),bp (°C),logP,log solubility (log10 mol/L),log vapor pressure (log10 mmHg),plasma fu,hepatic Clint (µL/min/10^6 cells)
CC(C)C1OCCN1CCOC(=O)NCCCCCCNC(=O)OCCN1CCOC1C(C)C (stereo unspecified),–,-45.05,–,–,–,-5.318,–,–
CO[Si](OC)(C1CCCC1)C1CCCC1,"Cyclopentane, 1,1'-(dimethoxysilylene)bis-",–,–,–,-4.472,-1.523,–,–
c1cc2c3c(c1)ccc1ccc4cccc-2c4c13,Benzo[ghi]fluoranthene,149,–,7.23,–,–,–,–
Cc1ccc(S(=O)(=O)[O-])cc1.[Na+],Sodium 4-methylbenzenesulfonate,–,–,-3.18,–,-10,–,–
CCCOC(=O)NCCCN(C)C.Cl,Propamocarb hydrochloride,–,–,–,–,–,0.8426,5.81
CCCCCCCCCCCC(=O)OCC(C)(C)C=O,"2,2-Dimethyl-3-oxopropyl dodecanoate",15.45,–,–,–,-4.339,–,–
CCCCCCCCCCCCCCCCCCO[Si](C)(C)OCCCCCCCCCCCCCCCCCC,"Silane, dimethylbis(octadecyloxy)-",32,–,–,–,-5.523,–,–
CC(C)(C=O)CN1CCOCC1,"2,2-Dimethyl-3-(morpholin-4-yl)propanal",–,199,1.689,–,-0.347,–,–
C=C(C)C(=O)OCCN1CCNC1=O,–,28,–,1.315,–,–,–,–
CCCCCCC(O)CCCCCCCCCCC(=O)NCCNC(=O)CCCCCCCCCCC(O)CCCCCC (stereo unspecified),"N,N'-Ethylenebis(12-hydroxyoctadecanamide)",138.5,–,–,–,-7.866,–,–
CCCCCCOc1ccc(C(c2ccccc2)(c2ccccc2)c2ccccc2)cc1OCCCCCC,"1,2-Bis(hexyloxy)-4-(triphenylmethyl)benzene",79.6,–,–,–,-9.557,–,–
C=COC(=O)c1ccccc1,Vinyl benzoate,-35.1,207.3,2.8,-2.623,-1.276,–,–
Cc1ccc(C2OC[C@@H]3OC(c4ccc(C)c(C)c4)O[C@H]([C@H](O)CO)[C@@H]3O2)cc1C (stereo partly drawn),"1,3:2,4-Bis(3,4-dimethylbenzylidene)-D-sorbitol",–,377.4,3.385,-6.94,-8.08,–,–
CCCCN[Si](C)(NCCCC)NCCCC,"Silanetriamine, N,N',N''-tributyl-1-methyl-",–,260.7,–,–,-1.87,–,–
CCCCCCOC(=O)/N=C(/N)c1ccc(NCc2nc3cc(C(=O)N(CCC(=O)OCC)c4ccccn4)ccc3n2C)cc1,Dabigatran etexilate,180,–,–,-2.543,–,–,–
CCCCCC(C)(CC)C(=O)[O-].CCCCCC(C)(CC)C(=O)[O-].[Fe+2] (stereo unspecified),Iron(2+) bis(2-ethyl-2-methylheptanoate),–,–,–,-7.396,-4.945,–,–
Nc1ccn([C@@H]2O[C@H](CO)[C@@H](O)C2(F)F)c(=O)n1,Gemcitabine,–,–,–,-1.072,–,0.995,–
CC(C)CCCCCCCCCCCCCCCOC(=O)CCCCCCCCCCCCCCC(C)C,Isooctadecyl isooctadecanoate,-3,–,–,-7.086,–,–,–
OCCCCCCCCCCCCO,"1,12-Dodecanediol",–,–,3.1,-4.034,-6.287,–,–
CCc1ccc(C2OC3COC(c4ccc(CC)cc4)OC3C(C(O)CO)O2)cc1 (stereo unspecified),"1,3:2,4-Bis-O-[(4-ethylphenyl)methylene]hexitol",214.5,337.1,1.6,-6.976,–,–,–
CCCCCCCCCCCCC1CO1 (stereo unspecified),"1,2-Epoxytetradecane",20.75,–,–,-5.985,-2.879,–,–
C=C(C)C(=O)NCCCN(C)C,N-(3-Dimethylaminopropyl)methacrylamide,–,–,0.5,–,-2.523,–,–
CCOC(=O)C1OC1c1ccccc1 (stereo unspecified),"Ethyl 2,3-epoxy-3-phenylpropionate",–,264.8,–,–,-3.046,–,–
C1=Nc2ccccc2OCC2(COc3ccccc3N=1)COc1ccccc1N=C=Nc1ccccc1OC2 (stereo unspecified),–,231,–,–,–,-10,–,–
NC(N)=Nc1nc2ccccc2o1,"N-1,3-benzoxazol-2-ylguanidine",180,–,–,-2.765,–,–,–
CC1=NN(c2cc(S(=O)(=O)[O-])ccc2Cl)C(=O)C1/N=N/c1cc(Cl)ccc1Oc1ccccc1Cl.[Na+] (stereo partly drawn),–,–,–,0.796,-2.316,–,–,–
CC(C)C1OCCN1CCO (stereo unspecified),"3-Oxazolidineethanol, 2-(1-methylethyl)-",-20.07,–,–,–,-3.222,–,–
CCO[Si](=O)O,"Silicic acid, ethyl ester",–,171.4,–,-3.804,0,–,–
CCCCOC(=O)CC(O)(CC(=O)OCCCC)C(=O)OCCCC,Tributyl citrate,–,–,3.5,-3.545,–,–,–
Br.CN[C@@H](C)c1cccc(OC)c1,(S)-1-(3-Methoxyphenyl)-N-methylethanamine hydrobromide,155.9,–,-1.69,–,-7.163,–,–
Cc1ccc(S(=O)(=O)c2ccc(O)c(O)c2)cc1,"1,2-Benzenediol, 4-[(4-methylphenyl)sulfonyl]-",180.4,–,1.47,-3.503,-9.678,–,–
COc1ccc(CC(C)C=O)cc1 (stereo unspecified),3-(4-Methoxyphenyl)-2-methylpropanal,–,–,2.4,-2.231,-2.648,–,–

3 of these entries, quoted again:

SMILES,name,melting point (°C),bp (°C),logP,log solubility (log10 mol/L),log vapor pressure (log10 mmHg),plasma fu,hepatic Clint (µL/min/10^6 cells)
C=COC(=O)c1ccccc1,Vinyl benzoate,-35.1,207.3,2.8,-2.623,-1.276,–,–
CC1=NN(c2cc(S(=O)(=O)[O-])ccc2Cl)C(=O)C1/N=N/c1cc(Cl)ccc1Oc1ccccc1Cl.[Na+] (stereo partly drawn),–,–,–,0.796,-2.316,–,–,–
c1cc2c3c(c1)ccc1ccc4cccc-2c4c13,Benzo[ghi]fluoranthene,149,–,7.23,–,–,–,–

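OPERA's authors assembled the values from existing databases and did not measure them anew. One number stands for a compound and property, with no spread given. Conditions of the individual experiments are not part of the data. Where a salt, mixture or single isomer is drawn, the source does not say that exactly this form was tested. Unmarked limits or estimates from the upstream databases cannot be ruled out.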